Laboratory results from US20170224799A1 (UNIVERSITY OF CONNECTICUT, published 2017).

Chains of the proteins cited; added tags and fusions are not shown. Residues count along the entry.
UniProt P01902, 22-305: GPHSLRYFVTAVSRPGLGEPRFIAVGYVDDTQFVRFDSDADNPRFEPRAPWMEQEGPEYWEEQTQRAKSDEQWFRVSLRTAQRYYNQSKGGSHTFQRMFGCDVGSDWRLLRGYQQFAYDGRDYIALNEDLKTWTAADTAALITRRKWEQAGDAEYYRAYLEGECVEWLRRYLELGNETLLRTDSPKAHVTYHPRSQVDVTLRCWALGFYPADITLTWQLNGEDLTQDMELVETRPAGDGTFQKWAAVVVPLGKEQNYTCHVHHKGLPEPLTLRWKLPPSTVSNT

Target: H-2 K^d (mouse, UniProt P01902 22-305)
Experiment: competition with radiolabeled standard peptide, purified H-2 K^d

IC50: 9.96 µM
Binder: SYMLQALCIPT [Tnpo3.2 Mut peptide SYMLQALCIPT]
